Values quoted from earlier work in patent US6548043B1, “Measurement of gastric emptying” (Metabolic Solutions, Inc., priority 1999, dated 2003).

Settings: cited from earlier work

With ^13C-sodium octanoate as the substance, how does the water solubility read?
Its water solubility is “water soluble”.
